The values that follow are results of earlier work, collected in paper PMC12524297 (International Journal of Molecular Sciences, 2025).

For the data set the following is noted: training dataset label; ref List of Hazardous Chemicals (2015 edition); cited from earlier work.

The structures appear in SMILES notation.

In the case of `CN(C)P(=O)(N(C)C)n1nc(-c2ccccc2)nc1N`, the haz is 1.
